Experimental findings from patent US7261876B2, “Multivalent constructs for therapeutic and diagnostic applications” (Bracco International BV, priority 2002, dated 2007) are described below.

By UniProt entry, the sequences of proteins in these tests, tags left out. Residues count along the entry.
UniProt P35968, 20-1356: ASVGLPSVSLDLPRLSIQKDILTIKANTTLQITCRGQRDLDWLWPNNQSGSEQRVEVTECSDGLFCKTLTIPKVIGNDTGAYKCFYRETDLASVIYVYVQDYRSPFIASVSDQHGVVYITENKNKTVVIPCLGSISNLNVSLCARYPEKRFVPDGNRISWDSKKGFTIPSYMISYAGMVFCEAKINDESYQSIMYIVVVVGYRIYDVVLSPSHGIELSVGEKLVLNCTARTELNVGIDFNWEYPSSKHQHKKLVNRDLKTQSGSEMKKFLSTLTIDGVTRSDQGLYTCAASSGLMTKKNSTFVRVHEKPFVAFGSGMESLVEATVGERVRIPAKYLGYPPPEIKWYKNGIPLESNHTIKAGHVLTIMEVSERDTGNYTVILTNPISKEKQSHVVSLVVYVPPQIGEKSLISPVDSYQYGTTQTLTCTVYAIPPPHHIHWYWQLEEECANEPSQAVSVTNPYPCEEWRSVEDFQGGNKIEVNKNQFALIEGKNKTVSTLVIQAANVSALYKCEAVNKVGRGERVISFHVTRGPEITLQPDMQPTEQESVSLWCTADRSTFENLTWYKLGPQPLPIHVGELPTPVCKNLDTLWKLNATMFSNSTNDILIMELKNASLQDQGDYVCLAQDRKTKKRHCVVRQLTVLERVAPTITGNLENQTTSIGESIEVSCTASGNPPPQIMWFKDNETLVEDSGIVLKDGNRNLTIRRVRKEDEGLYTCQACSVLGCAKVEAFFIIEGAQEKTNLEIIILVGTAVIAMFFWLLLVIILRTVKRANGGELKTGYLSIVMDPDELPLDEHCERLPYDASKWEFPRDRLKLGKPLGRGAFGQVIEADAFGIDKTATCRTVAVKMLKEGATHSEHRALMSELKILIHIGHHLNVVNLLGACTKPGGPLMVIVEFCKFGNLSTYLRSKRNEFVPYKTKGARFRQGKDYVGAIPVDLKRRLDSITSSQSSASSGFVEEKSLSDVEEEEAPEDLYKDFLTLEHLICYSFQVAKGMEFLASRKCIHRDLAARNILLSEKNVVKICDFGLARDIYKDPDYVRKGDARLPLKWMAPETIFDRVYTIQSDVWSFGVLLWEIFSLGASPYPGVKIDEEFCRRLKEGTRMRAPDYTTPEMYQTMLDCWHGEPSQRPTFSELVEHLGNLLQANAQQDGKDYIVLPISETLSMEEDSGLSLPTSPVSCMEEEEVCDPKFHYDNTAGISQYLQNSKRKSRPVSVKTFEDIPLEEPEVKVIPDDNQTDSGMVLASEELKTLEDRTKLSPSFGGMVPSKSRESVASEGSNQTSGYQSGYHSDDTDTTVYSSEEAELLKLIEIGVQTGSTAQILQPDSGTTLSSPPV

This assay deals with T1, KDR-expressing cells (Homo sapiens, UniProt P35968).
T1 construct: Both PCR products were digested with Not1 and ligated together to create the full-length receptor; V5-His (encoded by the vector); expressed in transfected cells; host or cells: 293H cells (Invitrogen cat. # 11631), transient lipofectamine 2000 transfection
Kind of assay: Displacement assay competing with P12-XB/streptavidin-HRP complex for binding to KDR-expressing cells. Particulars: complex concentration 5.5 nM.

Molecules are shown by their SMILES.

For `CC[C@H](C)[C@H](NC(=O)[C@H](CCC(=O)O)NC(=O)[C@H](CC(=O)O)NC(=O)[C@H](Cc1ccc(O)cc1)NC(=O)[C@H](Cc1ccc(O)cc1)NC(=O)[C@H](Cc1c[nH]c2ccccc12)NC(=O)[C@H](CC(=O)O)NC(=O)[C@H](CCC(N)=O)NC(=O)[C@H](C)NC(C)=O)C(=O)N[C@@H](CC(C)C)C(N)=O` [F2], the “inhibition of P12-XB streptavidin-HRP complex binding” value is “failed to significantly inhibit complex binding at one micromolar”.
